Reference: ChEMBL document CHEMBL4334464, “From Phenylthiazoles to Phenylpyrazoles: Broadening the Antibacterial Spectrum toward Carbapenem-Resistant Bacteria” (J Med Chem, 2019)

Key:
Acinetobacter baumannii = details: ATCC BAA 1747
Escherichia coli [1] = experiment: Antimicrobial activity against Escherichia coli JW55031 harboring deltatolC mutant after 18 to 20 hrs in aerobic condition by CLSI protocol based broth microdilution assay; type: functional
Escherichia coli [2] = details: ATCC 1411
Pseudomonas aeruginosa [3] = details: ATCC 25619
Escherichia coli [4] = experiment: Antibacterial activity against Escherichia coli BW25113 clinical isolates after 18 to 20 hrs in aerobic condition by CLSI-based broth microdilution assay; type: functional
Pseudomonas aeruginosa [5] = details: ATCC 9027

Measured: MIC

GENTAMICIN
0.5 µg/mL: Acinetobacter baumannii | Escherichia coli [1] | Escherichia coli [2] | Pseudomonas aeruginosa [3] | Escherichia coli [4] | Pseudomonas aeruginosa [5]
